{
  "sequences": {"note": "Sequences of proteins named here, by UniProt entry; tags and fusion partners are left off.", "UniProt P28566, whole entry": "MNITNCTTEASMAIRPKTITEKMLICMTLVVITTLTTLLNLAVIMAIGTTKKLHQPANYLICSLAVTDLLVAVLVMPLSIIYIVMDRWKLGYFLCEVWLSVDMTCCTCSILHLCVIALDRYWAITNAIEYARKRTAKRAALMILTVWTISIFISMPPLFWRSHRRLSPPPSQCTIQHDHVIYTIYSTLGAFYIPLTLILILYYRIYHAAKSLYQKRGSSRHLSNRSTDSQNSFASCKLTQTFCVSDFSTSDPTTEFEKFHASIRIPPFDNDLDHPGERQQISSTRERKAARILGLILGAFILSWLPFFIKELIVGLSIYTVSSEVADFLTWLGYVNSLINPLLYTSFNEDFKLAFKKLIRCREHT"},
  "source": "PubChem BioAssay AID571",
  "about": "(The Scripps Research Institute Molecular Screening Center, 2007)",
  "note": "The list shows a part of the results, in another mix than the full data. Activity calls are given as the source filed them.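 The calls were made as follows: active = inhibition above a set limit, the mean inhibition across every tested compound plus 3 SD (cut at about 29% in these data); inactive = the rest.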",
  "data": [
    {"molecular_target": "5-hydroxytryptamine receptor 1E (Homo sapiens) (UniProt P28566)", "assay": "5-HT1E receptor antagonists, primary screen, cell-based, HTS (AID 571);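 also: signal is the 460 over 535 nm emission ratio of beta-lactamase substrate; 0% = agonist plus DMSO wells and 100% = wells without agonist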", "details": "CHO 5-HT1E Ga15 NFAT-bla reporter, FRET, antagonist; at 6 µM; hits give high values", "values": [
      {"smiles": "Cc1nc2ccc3ccccc3c2o1.O=[N+]([O-])c1cc([N+](=O)[O-])c(O)c([N+](=O)[O-])c1", "inhibition": "inactive: 3.5%"},
      {"smiles": "COc1ccccc1OP(C)(=O)Nc1ccc(C)c(C)c1", "note": "(stereo not drawn)", "inhibition": "inactive: -3.69%"},
      {"smiles": "CP(=O)(Nc1ccccn1)Oc1ccccc1", "note": "(stereo not drawn)", "inhibition": "inactive: 1.08%"},
      {"smiles": "CCN(CC)CC(O)COC(=O)C(O)(c1ccccc1)C1CCCCC1", "note": "(stereo not drawn)", "inhibition": "inactive: 0.56%"},
      {"smiles": "COc1ccccc1OP(C)(=O)Nc1c(C)n(C)n(-c2ccccc2)c1=O", "note": "(stereo not drawn)", "inhibition": "inactive: 12%"},
      {"smiles": "CP(=O)(Oc1ccccc1)N1CCOC1=O", "note": "(stereo not drawn)", "inhibition": "inactive: 13.5%"},
      {"smiles": "CN(C)CCOC(=O)C(O)(c1ccccc1)C1CCCCC1", "note": "(stereo not drawn)", "inhibition": "inactive: -3.3%"},
      {"smiles": "CP(=O)(Nc1ccc2c(c1)OCCO2)Oc1ccccc1", "note": "(stereo not drawn)", "inhibition": "inactive: -2.64%"},
      {"smiles": "Cc1ccccc1NP(C)(=O)Nc1ccccc1C", "inhibition": "inactive: 6.85%"},
      {"smiles": "CCOP(C)(=S)SCC(=O)NC(C)(CC)C(=O)O", "note": "(stereo not drawn)", "inhibition": "inactive: -3.19%"},
      {"smiles": "CP(=O)(Nc1ccccc1F)Oc1ccccc1", "note": "(stereo not drawn)", "inhibition": "inactive: -3.86%"},
      {"smiles": "Cc1ccc(C)c(NP(C)(=O)Oc2ccccc2)c1", "note": "(stereo not drawn)", "inhibition": "inactive: -1.86%"},
      {"smiles": "Cc1nc2ccc3ccccc3c2s1.O=[N+]([O-])c1cc([N+](=O)[O-])c(O)c([N+](=O)[O-])c1", "inhibition": "inactive: -2.5%"},
      {"smiles": "CP(=S)(Nn1cnnc1)Oc1ccccc1", "note": "(stereo not drawn)", "inhibition": "inactive: 4.71%"},
      {"smiles": "CCOP(C)(=S)SCC(=O)NC(C)C(=O)O", "note": "(stereo not drawn)", "inhibition": "inactive: -0.24%"},
      {"smiles": "CP(=O)(NC(=O)Nc1ccccc1)Oc1ccccc1", "note": "(stereo not drawn)", "inhibition": "inactive: 3.77%"},
      {"smiles": "COc1ccccc1OP(C)(=O)Nc1ccc(C)cc1", "note": "(stereo not drawn)", "inhibition": "inactive: -0.62%"},
      {"smiles": "Cc1ccc(NP(C)(=O)Oc2ccccc2)c(C)c1", "note": "(stereo not drawn)", "inhibition": "inactive: -1.7%"}
    ]}
  ]
}
